Earlier results as cited in publication PMC4448209, “Vaccine-induced Aβ-specific CD8^+ T cells do not trigger autoimmune neuroinflammation in a murine model of Alzheimer’s disease” (Journal of Neuroinflammation, 2015).

Legend:
[1] = test system: BALB/c splenocytes; conditions: BALB/c mice vaccinated with Aβ-encoding DNA, in vitro stimulation with peptide; cited from earlier work
Excerpt: Besides CD4^+ T cell responses to Aβ, vaccination with full-length Aβ1-42 may also activate Aβ-specific CD8^+ T cells. The characterization of such potentially autoreactive CD8^+ T cells has received little attention, presumably because of their expected implication in the direct killing of CNS cells and thus reduced therapeutic interest.

[2] = test system: AD patients; conditions: phase 3 studies released summer 2012; 10 (bapineuzumab), 11 (solanezumab); cited from earlier work
Excerpt: Alzheimer’s disease (AD) is a severe neurodegenerative disorder characterized by progressive loss of memory and cognitive functions. Accumulation of amyloid-β peptide (Aβ), both as soluble oligomers and in the form of amyloid plaques, plays a key role in initiating the pathogenic cascade in AD. […] In line with ...

Substance	IFNγ secretion by splenocytes [1]	improvement of cognitive performance [2]
Aβ10-20: Aβ-derived peptide used for in vitro stimulation of splenocytes (YEVHHQKLVFF; Amyloid-beta protein 42; UniProt P05067 681-691, looked up, fragment)	not Aβ10-20	–
bapineuzumab: humanized anti-Aβ monoclonal antibody	–	inefficient at improving cognitive performance
